## Ab-14 heavy chain CDR variants: yeast mating affinities

From the AlphaSeq antibody data of Li et al. 2023 (doi:10.1038/s41467-023-39022-2), copy in the FLAb collection.

The target is the same throughout: PDVDLGDISGINAS, from the HR2 region of SARS-CoV-2 spike.

Each scFv is VH, a 15-residue (Gly4Ser)3 linker, VL, as in the parent Ab-14, and differs from it in the CDRs of the heavy chain only.
VH: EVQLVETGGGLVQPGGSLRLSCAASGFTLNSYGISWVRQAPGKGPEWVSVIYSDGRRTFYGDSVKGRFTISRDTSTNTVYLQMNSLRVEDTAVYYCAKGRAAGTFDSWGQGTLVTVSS
VL: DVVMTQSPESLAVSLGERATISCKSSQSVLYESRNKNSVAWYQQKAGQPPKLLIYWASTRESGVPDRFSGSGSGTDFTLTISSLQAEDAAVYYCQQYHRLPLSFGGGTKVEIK

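Phage display of a naive human antibody library on the peptide gave the parent. Designed CDR sequences, proposed from the first random library and measured here. Their group label is 14H_En_HC (En: ensemble of fine-tuned language models; HC: hill climbing; a sequence that several methods proposed may carry one label only). In AlphaSeq, yeast of one mating type display the scFv and yeast of the other type display the target. Binding brings cells together so that they mate, and sequencing counts the barcode pairs among the diploids. Scores were corrected for input abundance and mapped to Kd with protein pairs of known affinity run in the same pool. The assay was run in six technical replicates.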

Variants are written as CDR1, CDR2 and CDR3 of the heavy chain (limits as in the source). Parent: GFTLNSYGIS, VIYSDGRRTFYGDSVK, GRAAGTFDS.
Values are log10 of the apparent Kd in nM; lower means stronger binding.
Averages over replicates are reported, and they cover detected replicates only.
Where no diploid with the target was found in that replicate, the entry reads "ND": below detection, most likely a poor binder, though not proof of it.

CDR-H1,CDR-H2,CDR-H3,"log10 Kd, replicates",mean log10 Kd (nM),empty controls
GFDLNEYGIS,VIYADGRRTFYADSVK,GNAAGTFIV,-0.26 -0.71 -0.03 -0.38 -0.70 -0.41,-0.42,0 of 18
GFDLDEYGIS,VIYADGRRTFYSDSVK,GNVAGTFDV,-0.73 -0.65 -0.85 -0.73 -0.79 -0.56,-0.72,0 of 18
GFDLNEYGIS,VIYADGKRTAYSDSVK,GTNAGTFDS,-0.24 -0.73 -0.61 -0.92 -0.60 -0.62,-0.62,1 of 18 (1.29)
GFDLNEYGIS,VIYADGRRTFYSDSVK,GAVAGTFDK,-0.21 -0.61 -0.49 -0.94 -0.70 -0.48,-0.57,0 of 18
GFDLNDYGIS,VIYADGMRTAYIDSVK,GEQAGTFDL,-0.14 -0.12 -0.27 -0.50 -0.16 0.10,-0.18,0 of 18
GFNLNEYGIS,VIYADGRRKFYADSVK,GNTAGTFDT,-0.01 0.03 -0.34 0.21 -0.03 0.14,0.00,0 of 18
GFTLDEYGIS,VIYADGRRTFYADSVK,GNVAGTFDT,-0.11 -0.54 -0.38 -0.47 -0.62 -0.24,-0.40,0 of 18
GFNLNEYGIS,VIYADGRRTFYADSVK,GQEAGTFDM,-0.70 -0.65 -0.92 -1.22 -1.02 -1.19,-0.95,0 of 18
GFDLNEYGIS,VIYADGVRTFYADSVK,GEAGGTFDV,0.34 0.34 0.13 0.09 0.35 0.23,0.25,0 of 18
GFDLNEYGIS,VIYADGRRTFYSDSVK,GEAAGTFVQ,0.50 0.64 0.69 0.19 1.30 0.45,0.63,0 of 18
GFDLNEYGIS,VIYADGKRTFYADSVK,GKIAGTFNV,-0.07 -0.37 -0.41 -0.64 -0.56 -0.35,-0.40,0 of 18
GFDLNEYGIS,VIYADGRRTFYADSVK,GQVAGTFSS,-0.18 -0.44 -0.53 -0.69 -0.56 -0.60,-0.50,0 of 18
GFDLNEYGIS,VIYADGRRKFYADNVK,GENAGTFDV,0.93 0.07 ND 1.60 0.85 0.25,0.74,0 of 18
GFDLNEYGIS,VIYADGRRTSYADSVK,GQLAGTFDL,-0.43 -0.62 -0.84 -0.77 -0.96 -0.65,-0.71,0 of 18
GFDLNEYGIS,VIYADGRRTAYIDSVK,GEAAGTFDS,-0.26 -0.57 -0.76 -0.84 -0.54 -0.66,-0.61,0 of 18
GFNLDEYGIS,VIYADGRRTFYADSVK,GSHAGTFDT,-0.37 -1.06 -0.81 -1.05 -0.84 -0.79,-0.82,0 of 18
GFDLNEYGIS,VIYADGRRTSYIDSVK,GEAAGTFDV,-0.48 -0.58 -0.25 -0.75 -0.90 -0.68,-0.61,0 of 18
GFDLNEYGIS,VIYADGRRTAYLDSVK,GEAAGTFDM,0.57 -0.14 -0.17 -1.11 -0.60 -0.61,-0.35,0 of 18
GFDLNEYGIS,VIYADGRRTAYSDSVK,GGNAGFFDL,2.22 ND ND 4.12 ND ND,3.17,0 of 18
GFDLNEYGIS,VIYADGRRTFYSDSVK,GTFAGTFDV,-0.84 -0.87 -0.80 -1.05 -0.19 -0.81,-0.76,0 of 18
GFDLNEYGIS,VIYADGIRTFYADSVK,GNAAGTFDS,-0.38 -0.32 -0.29 -0.81 -0.31 -0.30,-0.40,0 of 18
GFDLNEYGIS,VIYADGRRTFYVDSVK,GESAGTFDQ,-0.37 -0.43 -0.28 -0.53 -0.75 -0.23,-0.43,0 of 18
GFDLNEYGIS,VIYADGSRTFYSDSVK,GQNAGTFDV,0.06 -0.29 -0.56 0.00 -0.26 -0.56,-0.27,0 of 18
GFDLNEYGIS,VIYADGIRTFYTDSVK,GEVAGTFDV,-0.50 0.71 -0.67 -0.33 -0.54 0.34,-0.17,0 of 18
GFDLNEYGIS,VIYADGRRTFYADSVK,GEVAGTFDM,-0.73 -0.42 -0.16 -0.66 -0.85 -0.15,-0.49,0 of 18
GFDLNEYGIS,VIYADGRRTFYTDSVK,GELAGIFDV,0.11 -0.07 0.02 0.59 -0.24 0.32,0.12,0 of 18
GFNLNEYGIS,VIYADGRRTFYSDSVK,GEQGGTFDV,1.01 0.47 0.19 0.87 1.11 0.36,0.67,1 of 18 (2.00)
GFDLNEYGIS,VIYADGRRTFYSDSVK,GTVAGTFDM,-0.16 -0.50 -0.46 -0.50 -0.28 -0.23,-0.35,0 of 18
GFDLNEYGIS,VIYADGRRKFYADKVK,GEFAGTFDV,0.01 0.05 0.07 0.03 0.14 0.15,0.07,0 of 18
GFDLNEYGIS,VIYADGKRTFYADSVK,GNVAGTFDS,-1.31 -0.21 -1.23 -1.17 -0.71 0.64,-0.66,0 of 18
GFDLNEYGIS,VIYADGRRTFYSDSVK,GQLAGTFDI,-0.52 -0.56 -0.92 -0.98 -0.82 -0.46,-0.71,0 of 18
GFDLNEYGIS,VIYADGRRTFYTDSVK,GNLAGTFDQ,-0.52 -0.54 -0.73 -0.83 -0.67 -0.63,-0.65,1 of 18 (3.51)
GFDLNEYGIS,VIYADGVRTAYIDSVK,GEQAGTFDV,0.01 0.00 -0.29 -0.26 -0.20 -0.27,-0.17,1 of 18 (2.29)
GFDLNEYGIS,VIYADGRRTFYSDSVK,GTQGGTFDM,0.10 0.10 -0.06 -0.37 0.03 -0.15,-0.06,1 of 18 (1.64)
GFDLNEYGIS,VIYADGQRTFYADSVK,GQLAGTFDL,-0.58 -0.52 -0.73 -0.80 -0.57 -0.86,-0.68,0 of 18
GFDINEYGIS,VIYADGRRTAYADSVK,GENAGTFDV,-0.01 0.21 -0.07 -0.19 -0.62 -0.15,-0.14,0 of 18

A sequence measured in both rounds can read differently, since the two assays cover different ranges.
The parent sequence was in this pool as ten entries: three were never detected, three once, and four in most replicates, with averages from 0.34 to 2.37.
The authors' rule: three or more of the six replicates give a measured affinity, fewer mean a poor binder.
Nonspecific signal, from three strains lacking the peptide, appeared in 1% of pairings of all heavy chain designs, centred on 2.08 (5% of these signals below 0.84); values are not corrected for it. The control count says in how many pairings with the empty strains this scFv gave a signal, with their mean in brackets.